According to ChEMBL document CHEMBL1765088, “5-Benzamidoisoquinolin-1-ones and 5-(ω-carboxyalkyl)isoquinolin-1-ones as isoform-selective inhibitors of poly(ADP-ribose) polymerase 2 (PARP-2)” (J Med Chem, 2011):

Test: Selectivity ratio, ratio of IC50 for full length human PARP-1 to IC50 for recombinant full length mouse PARP-2
In short: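 Ratio of IC50s from two assays. Human full-length PARP-1 from HeLa nuclear extract (ca. 50 ng) in FlashPlate scintillation proximity assay with 5.0 μM NAD+. Murine full-length PARP-2 antibody-captured with 2.5 μM 3H-NAD+. Both used duplex oligonucleotide DNA, 2% DMSO, pH 7.6 HEPES buffer, 10 min preincubation then 45 min reaction, eight concentrations in triplicate, and log dose-response IC50 fits.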

Row | Ratio IC50 | Structure (SMILES)
1 | > 2.5 | O=C(Nc1cccc2c(=O)[nH]ccc12)C12CC3CC(CC(C3)C1)C2
2 | > 2.9 | O=C(Nc1cccc2c(=O)[nH]ccc12)C1CCCCC1
